The text below walks through data of patent US5260386A, “Synthesis of tagged polymers by post-polymerization (trans) amidation reaction” (Nalco Chemical Company, priority 1993, dated 1993).

Bounds are passed on as bounds.

Series [1] can be described thus: Survey of relative performance of fluorescent derivatizing agents against a cooling water background. Type of series: physicochemical. From the text:
In preferred embodiment the derivatizing agents are selected from those that a reasonably high "relative performance" for a given background. As noted above, a molecule is generally considered highly fluorescent when it has a fluorescent quantum efficiency, or fluorescent quantum yield, within the range of from about 0.1 to about 1.0, and a light absorbance molar extinction coefficient of at least 1,000. The magnitude of fluorescent signal, or relative fluorescence, is the product of the fluorescent quantum yield multiplied times the light absorbance molar extinction coefficient. […] The "relative performance", as this phrase is used herein, is the ratio of the relative fluorescence of a composition to the relative fluorescence of a given background medium. The fluorescence readings are typically measured at the excitation/emission wavelengths that represent major peaks for the given fluorescent tagged polymer. […] Industrial cooling waters generally have an overall higher fluorescent intensity than industrial boiler waters, and therefore a degree of polymer tagging that is reasonably high for use in boiler waters may not be sufficiently high for cooling waters, since of course the intensity of fluorescence must not be overwhelmed by the background fluorescence and the intensity of fluorescence is dependent on the concentration level of the fluorescent species. […]

In a further series the test system is rats. The note with it: cited from earlier work.

For the molecule `Nc1cc(S(=O)(=O)O)c2cccc(S(=O)(=O)O)c2c1` [2-amino-4,8-naphthalene disulfonic acid], the “Relative Intensity Value, Composition” value in series [1] (0.4 ppm (acid actives), 1,5-naphthalene disulfonic acid standard = 100%, at own fluorescence maximum) is reported as 564%. Besides, the “Relative Performance” value in series [1] (composition relative intensity / cooling water background relative intensity) was found to be 61. Moreover, the “Reported LD50 (oral/rats)” value with rats is recorded as greater than 5.0 grams/kilogram.
